Laboratory results published in paper PMC10572347, “Structure–Activity Relationships and Antiplasmodial Potencies of Novel 3,4-Disubstituted 1,2,5-Oxadiazoles” (International Journal of Molecular Sciences, 2023).

System: P. falciparum NF54
Assay: In vitro microplate assay against P. falciparum (3H-hypoxanthine incorporation)
Type: cell-based, Plasmodium falciparum
Conditions: L-6 cells vs P.f. NF54
Procedure: In vitro activity against the erythrocytic stages of P. falciparum was determined using a ^3H-hypoxanthine incorporation assay, using the drug sensitive NF54 strain [37]. […] Serial drug dilutions of 11 3-fold dilution steps covering a range from 100 to 0.002 µg/mL were prepared. The 96-well plates were incubated in a humidified atmosphere at 37 °C, 4% CO2, 3% O2 and 93% N2. After 48 h, 0.05 mL of ^3H-hypoxanthine (=0.5 µCi) was added to each well of the plate. The plates were incubated for a further 24 h under the same conditions. The plates were then harvested with a Betaplate cell harvester (Wallac, Zurich, Switzerland). The red blood cells were transferred onto a glass fiber filter and washed with distilled water. The dried filters were inserted into a plastic foil with 10 mL of scintillation fluid and counted in a Betaplate liquid scintillation counter (Wallac, Zurich, Switzerland). The IC50 values were calculated from sigmoidal inhibition curves by linear regression using Microsoft Excel. Chloroquine (Sigma C6628) was used as control.

**Q.** How did the “S.I. = IC50 (Cyt.)/IC50 (P.f.NF54)” value turn out when “N-[4-(4-Fluorophenyl)-3-(trifluoromethyl)-1,2,5-oxadiazol-3-yl]benzamide [Compound 50]” was run?
**A.** Its value is 0.852.
